Measurements from US9403866B2, “Compositions and methods for increasing telomerase activity” (Telomerase Activation Sciences, Inc., priority 2009, dated 2016).

Protein sequences, listed by entry. Tags and fused reporters are not part of them. Lines headed by an entry give the natural chain unless they say otherwise; changes in a name come on top.
UniProt O14746: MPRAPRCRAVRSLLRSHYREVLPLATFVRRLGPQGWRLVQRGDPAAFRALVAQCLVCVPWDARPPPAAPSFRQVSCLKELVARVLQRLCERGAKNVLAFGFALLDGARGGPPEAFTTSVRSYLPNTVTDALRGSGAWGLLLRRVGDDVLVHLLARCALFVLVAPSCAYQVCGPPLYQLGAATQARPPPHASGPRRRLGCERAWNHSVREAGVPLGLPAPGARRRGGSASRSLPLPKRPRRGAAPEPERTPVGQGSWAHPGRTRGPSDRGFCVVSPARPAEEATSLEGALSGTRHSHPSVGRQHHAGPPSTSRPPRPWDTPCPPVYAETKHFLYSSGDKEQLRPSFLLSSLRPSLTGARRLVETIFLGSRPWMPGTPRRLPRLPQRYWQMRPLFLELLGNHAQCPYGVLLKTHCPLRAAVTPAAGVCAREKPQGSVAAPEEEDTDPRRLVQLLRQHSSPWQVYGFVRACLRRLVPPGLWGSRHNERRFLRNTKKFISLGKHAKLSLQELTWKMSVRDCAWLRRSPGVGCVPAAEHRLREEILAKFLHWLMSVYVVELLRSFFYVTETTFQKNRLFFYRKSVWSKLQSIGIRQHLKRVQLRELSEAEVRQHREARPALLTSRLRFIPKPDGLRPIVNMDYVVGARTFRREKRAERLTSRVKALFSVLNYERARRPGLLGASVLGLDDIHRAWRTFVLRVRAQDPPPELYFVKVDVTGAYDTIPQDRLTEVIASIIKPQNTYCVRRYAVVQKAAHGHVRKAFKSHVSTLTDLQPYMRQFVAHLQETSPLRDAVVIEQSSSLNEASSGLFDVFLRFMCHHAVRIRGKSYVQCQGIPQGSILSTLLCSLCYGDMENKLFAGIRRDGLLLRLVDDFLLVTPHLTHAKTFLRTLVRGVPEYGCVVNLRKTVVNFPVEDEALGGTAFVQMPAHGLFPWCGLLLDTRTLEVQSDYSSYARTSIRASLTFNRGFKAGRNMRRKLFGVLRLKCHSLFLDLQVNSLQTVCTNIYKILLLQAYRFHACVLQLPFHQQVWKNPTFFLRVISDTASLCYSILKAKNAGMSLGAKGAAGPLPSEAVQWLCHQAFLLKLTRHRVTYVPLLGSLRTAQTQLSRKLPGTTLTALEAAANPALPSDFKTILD

Molecular target: telomerase (Homo sapiens, UniProt O14746)
Assay: In vitro model of fibrosis: TGFβ and bleomycin treated SAECs, gel TRAP assay
Assay type: cell-based
Conditions: bleomycin 10 ug/ml, TGFβ 10 ng/ml

## TGFβ
  effect on SAEC telomerase activity: suppressed SAEC telomerase activity
